A selection: hits, their analogues and other compounds. The true share with any hit is near 13%.
JMJD2E inh: JMJD2E (human) inhibition; B2RXH2; JMJD2E catalytic domain, FDH-coupled NADH fluorescence (FDH is formaldehyde dehydrogenase); Potency, µM (doses to about 57.1 µM), without a hit: at the top dose activity change, negative = inhibition, most hits filed as inhibitors; 1.6% of 230,000 active; AID 2147; active = well fitted inhibition curve with a large enough effect, not every such curve was filed as active; inconclusive = small, poorly fitted or top-dose-only effect, or another doubt; inactive = no such curve, though single readings can be large or run the other way;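 note: potency is the fitted concentration of half-maximal effect; 0% = wells with enzyme and -100% = buffer wells without enzyme; nearly all actives have a fitted effect of over 50% in size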
miR-21 reporter: miR-21 reporter, rising signal; 340,000 tested, under 10 active; Potency, µM (highest dose often 38.3 µM), for the others: top-dose reporter change, positive = more light; HeLa miR-21 FLuc reporter, luciferase, 48 h; active = well fitted rising curve with a large enough effect; inconclusive = small, poorly fitted or top-dose-only effect; inactive = no such curve, though single readings can be large or run the other way;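 further: % of control where 0% means no effect; miR-21 action dims this reporter so a rising signal means less miR-21 action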
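HeLa cells endogenously expressing miR-21, stably carrying CMV-driven firefly luciferase with a downstream miR-21 binding site, 2000 cells/well. Titrations up to approximately 40 uM, 48 hours; luciferase luminescence read.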
Sfp PPTase inh: inhibitors of Bacillus subtilis Sfp phosphopantetheinyl transferase | Biochemical Sfp PPTase activity, qHTS | AID 1490 | Potency, µM, for the others: max response, negative = inhibition, hits mostly inhibitors | actives 3.5% (n = 310,000) | Q9F4F7; active = well fitted inhibition curve with a large enough effect; inconclusive = small, poorly fitted or top-dose-only effect, or another doubt; inactive = no such curve, though single readings can be large or run the other way;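 also: the enzyme is Sfp with the accession as filed and its product quenches rhodamine fluorescence; potency is read from the fitted curve at half-maximal effect; 0% = enzyme reaction without inhibitor and -100% = no enzyme wells; top concentration of the series not given in the record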
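Reaction rates are the 30-min fluorescence difference (ex 525, em 598 nm) in wells containing 15 nM Sfp, 5 uM rhodamine-CoA and 12.5 uM BHQ-2-YbbR at pH 7.6 with 10 mM MgCl2.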
Lamin A splicing: modulators of lamin A splicing | Potency, µM (series often up to 46.1 µM), inactives show top-dose ratio change, negative = inhibition, actives largely listed as inhibitors | 0.01% of 200,000 active | HeLa LMNA splicing GFP/RFP minigene ratio, 48 h; active = well fitted inhibition curve with a large enough effect in the signal ratio, with a control signal flat, not every such curve was filed as active; inconclusive = small, poorly fitted or top-dose-only effect, or effect the other way, or a change in a side signal; the % refers to the signal ratio; note: potency is the fitted concentration of half-maximal effect; % is set by controls: 0 for no effect and ±100 for the full control effect
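S3 HeLa stable clones carrying a lamin A-EGFP splicing minigene plus DsRed2 were seeded at 600 cells/well in Opti-MEM with 2% FBS, pin-dosed and incubated 48 h at 37°C. Acumen cytometry (488 nm) gave the GFP/RFP total-intensity ratio.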
ALDH1A1 inh: blocks purified human ALDH1A1 activity. P00352. Potency, µM (series often up to 75.3 µM), without a hit: at the top dose activity, negative = inhibition, actives largely listed as inhibitors. AID 1030. 7.3% of 220,000 active. Purified ALDH1A1, NADH fluorescence, propionaldehyde substrate; active = well fitted inhibition curve with a large enough effect, not every such curve was filed as active; inconclusive = small, poorly fitted or top-dose-only effect, or another doubt; inactive = no such curve, though single readings can be large or run the other way;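 note: potency is the fitted concentration of half-maximal effect; plate controls were no enzyme wells and a reference inhibitor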
G9a block: blocks human histone lysine methyltransferase G9a | 8.8% of 350,000 active | Potency, µM (highest dose often 102 µM), without a hit: top-dose activity, negative = inhibition, actives largely listed as inhibitors | AID 504332 | Q96KQ7 | G9a H3K9 monomethylation, AlphaScreen, 2 h; note: potency is the fitted concentration of half-maximal effect; % is set by controls: 0 for no effect and ±100 for the full control effect; nearly all actives have a fitted effect of over 75% in size
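AlphaScreen read-out: biotin-H3K9 peptide (500 nM) methylation by 20 nM enzyme with 20 uM SAM, 2 h at room temperature after 15 min compound preincubation; anti-monomethyl H3K9 antibody plus donor/acceptor beads, 10 min dark.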
Active calls of the source: *; ? = inconclusive; nt = no result; [ ] = another dose, or the depositor's remark. Unless noted, calls come from the whole dose curve; as a rule, active = well fitted curve in the direction sought with a large enough effect; inconclusive = small, poorly fitted or top-dose-only effect, or another doubt; inactive = no such curve, though single readings can be large; an effect the other way counts as inactive or inconclusive.

molecule	Sfp PPTase inh	G9a block	JMJD2E inh	miR-21 reporter	ALDH1A1 inh	Lamin A splicing
CSCC[C@H](NC(=O)[C@H](CC(C)C)NC(=O)[C@H](CO)NC(=O)[C@H](CCC(=O)O)NC(=O)[C@H](CC(C)C)NC(=O)[C@H](Cc1ccc(O)cc1)NC(=O)[C@H](CCCCN)NC(=O)[C@H](CCCCN)NC(=O)[C@H](C)NC(=O)[C@H](CO)NC(=O)[C@H](CC(C)C)NC(=O)[C@H](CCC(N)=O)NC(=O)CNC(=O)[C@H](CC(C)C)NC(=O)[C@H](CC(C)C)NC(=O)[C@H](CCCCN)NC(=O)[C@H](CO)NC(=O)[C@H](Cc1ccccc1)NC(=O)[C@H](CC(=O)O)NC(=O)[C@H](CO)NC(=O)[C@@H](NC(=O)[C@H](Cc1ccccc1)NC(=O)[C@@H](NC(=O)CNC(=O)[C@H](CC(=O)O)NC(=O)[C@H](C)NC(=O)[C@@H](N)Cc1cnc[nH]1)C(C)C)[C@@H](C)O)C(N)=O	0%	nt	nt	nt	nt	nt
COc1ccc(C(=O)NC(=S)NNC(=O)c2ccccc2O)cc1	20%	12%	nt	27%	nt	nt
COc1ccc(CC(=O)NNC(=O)c2cnccn2)cc1	56µM*	7.9µM*	-17%	-1%	13%	0%
COc1ccc(C(=O)NC(=S)NNC(=O)c2cnccn2)cc1	-15%	?	2%	-4%	18µM*	?
COc1cc(C(=O)NC(=S)NNC(=O)c2cnccn2)cc(OC)c1OC	7%	-4%[59 µM]	11µM*	27%	-5%	?
COc1ccc(CC(=O)NNC(=O)c2ccccn2)cc1	23%	25%	nt	-7%	nt	nt
COc1cc(C(=O)NNC(=S)NC(=O)c2ccccc2C)cc(OC)c1OC	18%	?	?	16%	1%	?
O=C(CSc1nc2ccsc2c(=O)n1Cc1ccccc1Cl)NCc1ccc(Cl)cc1	nt	-10%[59 µM]	nt	1%	nt	nt
CCN1C(=O)S/C(=C/c2c(OCc3ccc(C(=O)O)cc3)ccc3ccccc23)C1=O	?	50µM*	8%	3%	?	?
O=C(CSc1nncs1)Nc1nccs1	nt	-4%	nt	nt	nt	nt
O=C(c1ccco1)N1CCn2cccc2C1c1ccccc1 (stereo not drawn)	-27%	?	?	-5%	1.3µM*	nt
COc1cc(=O)n2c(n1)SCCC2	8%	-13%[12.7 µM]	-1%	0%	0%	16%
O=C(COc1cc(=O)n2c(n1)SCCC2)c1ccccc1	3%	-22%	6%	-22%	14µM*	10%
Nc1ccccc1C(=O)C[C@H](N)C(=O)O	71µM*	2%[59 µM]	nt	nt	-4%	nt
NC(CC(=O)NC(c1ccccc1)(c1ccccc1)c1ccccc1)C(=O)O (stereo not drawn)	?	-3%	-9%	0%	3%	nt
CN1CCN(C(=O)/C=C/c2ccccc2)CC1	5%	?	nt	-9%	nt	nt
CSc1ccc(/C=C/C(=O)N2CCCN(C)CC2)cc1	7%	22µM*	?	-19%	?	5%[46 µM]
O=C(c1cc2ccccc2[nH]1)N(Cc1cccnc1)CC1CCCN(C2CCCCC2)C1 (stereo not drawn)	9%	5%	nt	-24%	nt	nt
Cc1ccc(S(=O)(=O)N/N=C\c2ccc([N+](=O)[O-])o2)cc1	-13%	3.5µM*	-23%	-6%	?	-16%
O=[N+]([O-])c1ccc(/C=N/N=C/c2ccc([N+](=O)[O-])o2)o1	3%	?	14µM*	?	?	?

Shown as a hit in ALDH1A1 inh, of those listed so far:
molecule	Sfp PPTase inh	G9a block	JMJD2E inh	miR-21 reporter	ALDH1A1 inh
COc1ccc(C(=O)NC(=S)NNC(=O)c2cnccn2)cc1	-15%	?	2%	-4%	18µM*
O=C(c1ccco1)N1CCn2cccc2C1c1ccccc1 (stereo not drawn)	-27%	?	?	-5%	1.3µM*
O=C(COc1cc(=O)n2c(n1)SCCC2)c1ccccc1	3%	-22%	6%	-22%	14µM*

Later entries:
molecule	Sfp PPTase inh	G9a block	JMJD2E inh	miR-21 reporter	ALDH1A1 inh	Lamin A splicing
O=[N+]([O-])c1ccc(/C=N/NS(=O)(=O)c2ccc(Cl)cc2)o1	-14%	3.5µM*	?	0%	7.9µM*	-13%
Cc1ccc(S(=O)(=O)N/N=C\c2ccc([N+](=O)[O-])o2)cc1C	12%	79%	nt	-2%	nt	nt
O=[N+]([O-])c1ccc(/C=N/Nc2ccnc3cc(Cl)ccc23)o1	-19%	40µM*	nt	-12%	nt	nt
CN1CCC(n2[nH]c(-c3ccccc3)c(Cc3ccccc3)c2=O)CC1	nt	nt	nt	nt	2%[13.5 µM]	nt

High-throughput results (PubChem BioAssay)
